Test system: growth arrest of stationary phase cells in G0/G1

Compound	frequency of G0/G1 arrest in stationary phase (visible buds)	G0/G1 arrest (Table 2 summary, stationary phase)	fraction of cells with visible buds (wild type cells, day 3 of medium depletion)
CC(=O)N[C@@H](CS)C(=O)O [N-acetylcysteine]	absent	–	–
N[C@@H](CCC(=O)N[C@@H](CS)C(=O)NCC(=O)O)C(=O)O [GSH, glutathione]	–	↑	fewer visible buds

From US9034857B2 (Health Research, Inc., priority 2010, dated 2015)
